Reference: patent publication US10144715B2, “Piperazine derivatives as liver X receptor modulators” (priority 2014, dated 2018)

The chains behind the UniProt entries cited, without tags or fusion partners. Residues count along the entry.
UniProt P55055, 222-460 limits assumed: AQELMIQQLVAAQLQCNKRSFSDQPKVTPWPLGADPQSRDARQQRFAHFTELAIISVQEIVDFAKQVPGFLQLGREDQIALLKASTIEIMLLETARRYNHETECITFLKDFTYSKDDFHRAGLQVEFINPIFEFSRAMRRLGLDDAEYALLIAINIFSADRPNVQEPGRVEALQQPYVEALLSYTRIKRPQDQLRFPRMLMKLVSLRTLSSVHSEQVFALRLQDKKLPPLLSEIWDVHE

Each molecule was assayed against Gal4 DNA binding domain fused to the LBD of LXRβ in HEK293 cells (Homo sapiens (Human), UniProt P55055) (assay: LXR luciferase transcriptional reporter gene assay, agonist mode, LXRβ).
Format: cell-based

SMILES	Cell LXRβ efficacy
CC(C)[C@@H]1CN(c2ccc(F)c(S(C)(=O)=O)c2)CCN1C(=O)OC(C)(C)C(F)(F)F [5-2, 1,1,1-trifluoro-2-methylpropan-2-yl (R)-4-(4-fluoro-3-(methylsulfonyl)phenyl)-2-isopropylpiperazine-1-carboxylate]	111 (49) %
CC(C)[C@@H]1CN(c2ccc(F)c(S(C)(=O)=O)c2)CCN1C(=O)OC(C)C(F)(F)F (stereo partly drawn) [5-3, 1,1,1-trifluoropropan-2-yl (2R)-4-(4-fluoro-3-(methylsulfonyl)phenyl)-2-isopropylpiperazine-1-carboxylate]	198 (58) %
CC(C)[C@@H]1CN(c2ccc(F)c(S(C)(=O)=O)c2)CCN1C(=O)OCC(F)(F)F [5-4, 2,2,2-trifluoroethyl (R)-4-(4-fluoro-3-(methylsulfonyl)phenyl)-2-isopropylpiperazine-1-carboxylate]	732 (32) %
CC(C)[C@@H]1CN(c2ccc(F)c(S(C)(=O)=O)c2)CCN1C(=O)OC1CC(F)(F)C1(F)F (stereo partly drawn) [Cpd No 5-1, 2,2,3,3-tetrafluorocyclobutyl (2R)-4-(4-fluoro-3-(methylsulfonyl)phenyl)-2-isopropylpiperazine-1-carboxylate]	272 (63) %
